Screens: PubChem, National Center for Advancing Translational Sciences (NCATS)
Rango dissoc inh – inhibition of RanGTP-driven Rango-importin beta dissociation; O95149+P62826; Biochemical FRET Rango-importin beta, RanGTP-induced dissociation; Potency, µM (highest dose often 46.1 µM); 340,000 compounds, 0.071% hits; AID 540253; further: nearly all actives have a fitted effect of over 45% in size
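Compounds preincubate 5 min with complex of recombinant Rango and importin beta in PBS with 1 mM DTT. Ran (0.6 uM) loaded with 2 mM GTP plus 0.2 uM RCC1 starts dissociation; FRET is recorded 45 min later.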
CCT chaperon mod – cytosolic chaperonin activity modulation; 360,000 compounds, 0.3% hits; purified chaperonin ATPase assay, HTRF ADP detection, 30 min; AID 651819; activity change, % (test concentration not listed), hits read low; in the data active means activity change below about -30%
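TRiC at 40 or 20 nM final (batch-dependent) in 30 mM Tris pH 7.4, 100 mM KCl, 5 mM MgCl2, 1 mM DTT, with compound at single 76 uM and 10 uM ATP, 30 min at 37 deg C. ADP detected by HTRF Transcreener, 665/615 ratio.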
Rango complex inh – inhibitors of Rango-importin beta complex formation. Q14974. Rango CFP/YFP FRET sensor + importin beta, 45 min. Potency, µM (titrated, usually from 92.2 µM). 340,000 compounds, 0.031% hits. AID 540263; further: nearly all actives have a fitted effect of over 15% in size
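FRET biosensor (snurportin 1 IBB flanked by EYFP and cerulean), 50 nM, with compound 5 min, then 0.125 microM importin beta in PBS, 1 mM DTT, 0.02% Tween-20, 0.1% BSA. CFP/YFP ratio read after 45 min at room temperature; pre-read flags interference.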
Mm-Cpn inhibitor – inhibitors of Methanococcus maripaludis chaperonin TRiC (MmCpn). Potency, µM (doses to about 76.9 µM), usual class: inhibitors. purified Mm-Cpn ATPase, ADP Transcreener TR-FRET. 330,000 compounds, 0.031% hits; active means well fitted inhibition curve with a large enough effect; inconclusive means small, poorly fitted or top-dose-only effect; further: nearly all actives have a fitted effect of over 80% in size
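Quantitative HTS used 25 nM Mm-CPN and 10 uM ATP in magnesium/KCl Tris buffer, pH 7.4, with 1 mM DTT. Hydrolysis ran 30 min at 37°C; ADP was read by HTRF.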
Numbers stand for hits; 0 = inactive; ? = inconclusive; - = no result; [ ] = dose if it differs, or a comment. Rows were chosen to be rich in hits. Some 0.39% of all compounds tested hit in one or more screens of this group. Unless noted, the call rests on the fitted dose curve.

SMILES	Rango dissoc inh	CCT chaperon mod	Rango complex inh	Mm-Cpn inhibitor
Nc1ccccc1-c1n[nH]c(=S)s1	15µM	0	?	?
CN(CC(=O)Nc1ccc(Cl)c(C(F)(F)F)c1)C(=O)c1ccc2c(c1)OCCO2	0	-81	0	0
N#CC1(NC(=O)COc2ccccc2[N+](=O)[O-])CCCCC1	0	0	0	0
N#CC1(NC(=O)COc2cccnc2[N+](=O)[O-])CCCCC1	0	-38	0	0
Cc1cc(-c2ccc(N=Nc3c(S(=O)(=O)O)cc4cc(S(=O)(=O)O)cc(N)c4c3O)c(C)c2)ccc1N=Nc1c(S(=O)(=O)O)cc2cc(S(=O)(=O)O)cc(N)c2c1O	-	-	-	32µM
O=C(c1ccco1)N1CCN(C2CN(Cc3cn(Cc4ccccc4C(F)(F)F)nn3)S(=O)(=O)C2)CC1 (stereo unspecified)	-	0	-	-
CC(C(=O)O)N1C(=O)/C(=C/c2cccn2C)SC1=S (stereo unspecified)	2.6µM	0	?	0
COc1ccc(NS(=O)(=O)c2c(C)cc(C)cc2C)cn1	0	0	0	0
Cc1c(C(=O)N2CCc3ccccc3C2)oc2ccccc12	0	0	0	0
COc1cc(OC)cc(-c2c(-c3cccs3)c3cc(-c4ccn[nH]4)ccc3n2C)c1	0	0	0	0
O=C(O)c1cccc(-n2cccc2/C=C2/NC(=O)N(c3ccc(Cl)cc3)C2=O)c1	16µM	0	?	0
O=C(COC(=O)CCN1C(=O)C2CC=CCC2C1=O)Nc1ccc([N+](=O)[O-])cc1 (stereo unspecified)	0	0	0	0
CC(C)N(CCn1c(SCC(=O)Nc2cccnc2Cl)nc2ccccc2c1=O)C(C)C	0	0	0	0
CCOc1ccccc1C(=O)NCc1ccc2c(c1)OCO2	0	0	0	0
CCOc1cccc2cc(-c3nnc(NCc4ccc5c(c4)OCO5)s3)c(=O)oc12	1.3µM	0	?	0
CCc1nc2ccc(C(=O)NCCCN3CCCC3=O)cn2c1N(CC)C(=O)NCCc1ccccc1	-	0	-	-
Cc1ccc(C)c(CNS(=O)(=O)c2ccc3c(c2)C(C)(C)C(=O)N3C)c1	0	-34	0	0
CCOc1ccccc1CNS(=O)(=O)c1ccc2c(c1)C(C)(C)C(=O)N2C	0	0	0	0
CC(C)OC(=O)/C(C#N)=C/c1cn(C)c2ccccc12	0	0	?	0
Cn1cc(/C=C(\C#N)C(=O)Nc2ccccc2O)c2ccccc21	18µM[inhibitor]	0	?	0
CSc1nc(N)nc2c1ncn2CC(=O)N1CCN(c2ccccn2)CC1	0	0	0	0
COc1ccccc1N1CCN(C(=O)c2ccc(Cn3c(=S)[nH]c4cc5c(cc4c3=O)OCO5)cc2)CC1	0	-31	0	0
COc1ccc(NC(=O)c2cc3c(=O)n(C)c4ccccc4c3n2C)cc1OC	0	-32	0	0
Cn1c(C(=O)NCc2cccs2)cc2c(=O)n(C)c3ccccc3c21	0	0	0	0
Cc1ccc(CNC(=O)c2cc3c(=O)n(C)c4ccccc4c3n2C)cc1	0	-32	0	0
SMILES	Rango dissoc inh	CCT chaperon mod	Rango complex inh	Mm-Cpn inhibitor
CN(C)C(=O)CN1C(=O)NC2(CCc3ccccc32)C1=O (stereo unspecified)	0	0	0	0
COc1ccc(-c2oc3ccccc3c2C(=O)OCc2ccccc2)cc1	0	-33	0	0
Cc1c(N2C(=O)/C(=C\c3ccc(N(C)C)cc3)N(C)C2=S)c(=O)n(-c2ccccc2)n1C	0	0	52µM	0
COc1ccc(NC(=O)CC2C(=O)NCCN2C(=O)c2ccc(N(C)C)cc2)cc1 (stereo unspecified)	0	-50	?	0
CC1(c2nnnn2Cc2ccccc2)CCC(=O)N1CC1CCCCC1 (stereo unspecified)	-	0	-	-
CCOC(=O)c1cc2c(=Cc3ccc(N(C)C)cc3)c3ccccc3n2[n+]1C	?	0	0	-
Cc1cc2c(=Cc3ccc(N(C)C)cc3)c3ccccc3n2[n+]1C	0	-45	0	-
CC1(C)CC(=O)C2=C(C1)OC(N)=C(C#N)C2c1cc2c(cc1[N+](=O)[O-])OCO2 (stereo unspecified)	16µM	0	?	0
CCOc1cc(C2C(C#N)=C(N)OC3=C2C(=O)CC(C)(C)C3)cc([N+](=O)[O-])c1O (stereo unspecified)	0	0	0	0
CC(C)C(O)(C#CCN1CCCCCC1)c1ccccc1 (stereo unspecified)	0	-38	0	0
CC(O)(C#CCN1CCCCC1)c1ccccc1 (stereo unspecified)	0	0	0	0
Fc1cccc(NCCc2c[nH]c3ccccc23)n1	0	0	0	0
c1ccc2c(NCCc3c[nH]c4ccccc34)c3ccccc3nc2c1	15µM[inhibitor]	0	?	0
Cc1cc(C(=O)NCc2cccnc2)no1	0	-31	0	0
c1ccc(Nc2nc3ccccc3n3nnnc23)cc1	21µM	0	?	0
Brc1ccc(Nc2nc3ccccc3n3nnnc23)cc1	-	-	-	0
COc1ccc(-c2nnc(NC(=O)C(C)C)o2)cc1	0	-39	0	0
O=C(NCc1cc(Cl)cc(Cl)c1)c1csc(COCCO)n1	-	0	-	-
Cc1cc(C)n(Cc2ccc(C(=O)NN)o2)n1	0	-50	0	0
NC(=O)C1CCN(c2nc(-c3ccccc3Cl)cs2)CC1	-	-	-	0
O=C(O)CCCNC(=O)Cc1ccccc1	0	-91	0	0
O=C(Cc1ccccc1)NCCCc1ccccc1	0	0	0	0
O=C(NCCN1CCCCC1)c1ccc(Oc2cc(Cl)cc(Cl)c2)o1	16µM	0	0	0
O=C(N/N=C/c1coc2ccccc2c1=O)c1cc(Br)c(O)c(Br)c1	0	0	0	0
CCCOc1cccc(C(=O)N/N=C/c2coc3ccccc3c2=O)c1	0	-37	0	0
SMILES	Rango dissoc inh	CCT chaperon mod	Rango complex inh	Mm-Cpn inhibitor
Cc1ccc(C)c(S(=O)(=O)N2CCNCC2)c1	0	-34	0	0
Cc1ccc(C)c(S(=O)(=O)N2CCC3(CC2)OCCO3)c1	0	0	0	0
CC1(C(=O)NS(=O)(=O)c2ccc(C#N)cc2)CCN1C(=O)Cc1ccccc1Cl (stereo unspecified)	-	0	-	-
COc1ccccc1N1C(=O)S/C(=C\c2ccc(C)s2)C1=O	0	0	?	0
Cc1c(/C=C2\SC(=O)N(CC(=O)Nc3ccc4c(c3)OCO4)C2=O)c2ccccc2n1C	26µM[inhibitor]	0	?	0
CCn1cc(/C=C2\SC(=O)N(CC(=O)Nc3ccc4c(c3)OCO4)C2=O)c2ccccc21	0	0	0	0
Cc1cccc(NC(=O)CN2C(=O)S/C(=C\c3cc(C)n(C)c3C)C2=O)c1	23µM	0	?	0
COc1ccccc1N1C(=O)S/C(=C\c2cc(C)n(C)c2C)C1=O	18µM	0	?	0
Cc1ccc(NC(=O)CN2C(=O)S/C(=C\c3cc(C)n(C)c3C)C2=O)cc1	?	0	?	0
CC(C)CNc1ncnc2c1ncn2[C@H]1CN(Cc2ccco2)C[C@@H](CO)O1	-	0	-	-
Cc1ccc(S(=O)(=O)NCCCNS(=O)(=O)c2ccccc2Br)cc1	0	0	0	0
O=C(NCc1ccccn1)Nc1cccc(Cl)c1	0	-42	0	0
